Assays:
A33 antigen [1] = target: T1, A33 antigen (Homo sapiens, endogenous on SW1222 and …, UniProt Q99795); test: flow cytometry on cells; Scatchard analysis: FITC-labelled antibodies titrated on 2.8 x 10^5 SW1222 cells, 2 h on ice, 350 ul PBS with 5% FCS and 0.1% sodium azide; fluorescence per cell calibrated with standard beads; linear regression; settings: one partner purified
T1 construct: A33 antigen on human colorectal tumour cell lines; also called the antigen recognised by A33; source: endogenous, on SW1222 and Colo205 human colorectal tumour cells

A33 antigen [2] = target: T1, A33 antigen; test: flow cytometry on cells; competition: Colo205 cells with a standard quantity of FITC-labelled murine A33 IgG and a dilution series of the humanised variants; bound FITC measured by FACScan; plotted against nM binding sites, triplicates; settings: one partner purified

| Binder | Kd (A33 antigen [1]) | fold better binding than hIgG (competition) (A33 antigen [2]) |
| --- | --- | --- |
| humanised A33 IgG1 (antibody, V domains shown) VH: EVQLLESGGGLVQPGGSLRLSCAASGFAFSTYDMSWVRQAPGKGLEWVATISSGGSYTYYLDSVKGRFTISRDSSKNTLYLQMNSLQAEDSAIYYCAPTTVVPFAYWGQGTLVTVSS VL: DIQMTQSPSSLSVSVGDRVTITCKASQNVRTVVAWYQQKPGLAPKTLIYLASNRHTGVPSRFSGSGSGTDFTFTISSLQPEDIATYFCQQHWSYPLTFGQGTKVEVK | 1.27 nM | – |
| hA33 TFM (other, human, as the Fab' heavy chain constant segment of m6 (from the cB72.3 Fab'Acys gene of King et al. 1994); human kappa light chain constant region; Three Fab' chemically cross-linked through the single hinge thiol; single species of approximately 150 kDa on non-reducing SDS-PAGE; also called hTFM; trivalent Fab fragment; copies: 3 + 3) VH: EVQLLESGGGLVQPGGSLRLSCAASGFAFSTYDMSWVRQAPGKGLEWVATISSGGSYTYYLDSVKGRFTISRDSSKNTLYLQMNSLQAEDSAIYYCAPTTVVPFAYWGQGTLVTVSS VL: DIQMTQSPSSLSVSVGDRVTITCKASQNVRTVVAWYQQKPGLAPKTLIYLASNRHTGVPSRFSGSGSGTDFTFTISSLQPEDIATYFCQQHWSYPLTFGQGTKVEVK | – | ~2 fold |

From article PMC2034099, “Preparation and preclinical evaluation of humanised A33 immunoconjugates for radioimmunotherapy” (British Journal of Cancer, 1995)
